Yeast mating assay B: variants of the scFv Ab-14

All variants were tested on one target, the spike HR2 peptide PDVDLGDISGINAS (SARS-CoV-2).

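Phage display of a naive human antibody library on the peptide gave the parent. The variants were designed computationally from a first round of random CDR variants and then made and measured. Their group label is 14L_GP_Gen (GP: Gaussian process model; Gen: genetic algorithm; a sequence that several methods proposed may carry one label only). In AlphaSeq, yeast of one mating type display the scFv and yeast of the other type display the target. After mating in shaken culture at 30 °C for 16 h, diploids were selected and their barcode pairs sequenced. The ratio of observed to expected reads was calibrated, replicate by replicate, on BCL2-family standards whose Kd was known from biolayer interferometry. Mating was done six times.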

Parent scFv Ab-14: VH joined to VL by a (GGGGS)3 linker. Changes lie in the light chain CDRs alone.
VH: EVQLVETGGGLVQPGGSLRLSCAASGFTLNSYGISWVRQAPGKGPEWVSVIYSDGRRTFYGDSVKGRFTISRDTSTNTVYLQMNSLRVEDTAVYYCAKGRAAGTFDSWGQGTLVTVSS
VL: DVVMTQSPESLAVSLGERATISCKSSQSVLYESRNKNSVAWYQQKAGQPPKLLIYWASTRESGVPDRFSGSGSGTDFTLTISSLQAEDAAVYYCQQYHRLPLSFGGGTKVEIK

Each variant is given by its three light chain CDRs, as the data file delimits them; those of the parent are KSSQSVLYESRNKNSVA, WASTRES, QQYHRLPLS.
The read-out is the apparent dissociation constant on a log10 scale (nM): the lower, the stronger.

| CDR-L1 | CDR-L2 | CDR-L3 | replicates, log10 nM | control signals |
|---|---|---|---|---|
| KLSQSVLYEDRNKNSVA | HASTRES | QQYHRLPLS | -0.36 -0.38 -0.28 -0.31 -0.26 -0.33 | 1 of 18 (2.33) |
| KLSQSVLYEDRNSNSVA | NASTRES | QQYHRLPLS | 0.00 0.21 -0.13 0.24 0.01 0.20 | 1 of 18 (2.62) |
| KLQQSVLYESRNKNSVA | NASQRLS | QQYHRLPLS | -0.03 -0.01 -0.24 -0.27 -0.02 -0.01 | 2 of 18 (2.84) |
| KLQQSEEYESRNKNSVA | NASTRLS | QQYHRLPLS | 0.09 0.16 0.07 -0.15 0.31 0.21 | 0 of 18 |
| KVSQSEPYESRNKNSVA | NASTRMS | QQYHRLPLS | 1.01 0.39 0.42 0.44 0.19 0.39 | 1 of 18 (3.40) |
| KLSQSFLYESRQKNSVA | NASTRES | QQYHRLPLS | -0.05 -0.05 -0.29 -0.37 -0.04 0.02 | 1 of 18 (2.63) |
| KLSQSEPYESRNKNSVA | NASTRCS | QQYHRLPLS | 0.18 -0.18 -0.50 -0.06 -0.25 0.18 | 0 of 18 |
| KLYQSELYESRNKNSVA | EASTRES | QQYHRLPLS | 0.21 -0.20 -0.27 -0.25 -0.24 -0.04 | 0 of 18 |
| KLSQSVLYESRNKNSVA | EASCRES | QQYHRLPLS | 0.00 -0.38 -0.24 -0.31 -0.50 -0.20 | 1 of 18 (2.63) |
| KLSQSDLYESRNSNNVA | EASTRES | QQYHRLPLS | 0.14 0.21 0.25 -0.11 0.06 -0.01 | 0 of 18 |
| KLSQQWLYESRNKNSVA | NASQRES | QQYHRLPLS | 0.10 0.04 0.05 -0.06 0.01 0.15 | 0 of 18 |
| KFSQSVMYESRNKNSVA | DASTRES | QQYHRLPLS | -0.17 -0.40 -0.33 -0.28 -0.16 -0.21 | 2 of 18 (3.35) |
| KLPQSVGYESRNKNSVA | DASTRES | QQYHRLPLS | 0.10 -0.05 -0.23 -0.06 -0.17 0.04 | 0 of 18 |
| KFSQSVPYESRNKNSVA | EASTRES | QQYHRLPLS | -0.02 -0.31 -0.36 -0.39 -0.33 -0.08 | 0 of 18 |
| KVSMSELYESRNKNSVA | NASTRES | QQYHRLPLS | 0.02 -0.19 -0.30 -0.15 -0.10 -0.03 | 1 of 18 (2.52) |
| KLSGSNLYESRNKNSVA | NASTRES | QQYHRLPLS | -0.33 -0.47 -0.53 -0.68 -0.35 -0.33 | 1 of 18 (2.48) |
| KLSQSTLYESRMKNSVA | NASTRLS | QQYHRLPLS | 0.23 0.08 0.01 0.06 0.18 0.17 | 1 of 18 (4.29) |
| KLQQSELYESRNKNSVA | QASQRES | QQYHRLPLS | -0.02 -0.08 -0.20 -0.11 -0.26 0.02 | 1 of 18 (2.95) |
| KLSQSVLYESRNKNSVA | EASQRES | QQYHRLPLS | 0.02 0.50 -0.08 0.08 -0.08 0.31 | 0 of 18 |
| KVSQSVLYESRNQNSVA | EASTRES | QQYHRLPLS | -0.02 -0.23 -0.30 -0.21 -0.27 0.17 | 1 of 18 (2.76) |
| HLSQSVLYESRNKNSVA | NASQREQ | QQYHRLPLS | 0.58 0.45 0.35 0.32 0.76 0.52 | 1 of 18 (2.82) |
| KLEQSVLYESRNKNSVA | NASQREV | QQYHRLPLS | -0.19 -0.03 -0.19 -0.27 -0.10 0.01 | 3 of 18 (2.28) |
| KLSQSVGYESRNKNNVA | EASTRES | QQYHRLPLS | 0.31 0.32 0.19 0.34 0.07 0.32 | 4 of 18 (2.01) |
| KLPQSVPYESRNKNSVA | NASTRES | QQYHRLPLS | -0.22 -0.39 -0.30 -0.46 -0.31 -0.32 | 1 of 18 (3.11) |
| KLSQMWLYESRNKNSVA | NASQRES | QQYHRLPLS | -0.13 -0.10 -0.34 -0.33 -0.30 -0.02 | 0 of 18 |
| KLSQSVLYESRNKNNVA | MASTRES | QQYHRLPLS | 0.43 0.03 -0.41 -0.59 0.26 0.22 | 0 of 18 |
| KFSQSELYESRNKNSVA | NASTRES | QQYHRLPLS | 0.21 -0.42 -0.29 -0.12 -0.26 0.09 | 0 of 18 |
| KLPQSYLYESRNKNSVA | EASTRES | QQYHRLPLS | 0.63 0.24 0.30 0.32 0.16 0.56 | 1 of 18 (2.42) |
| KLQQSELYESRNKNSVA | NASTRES | QQYHRLPLS | 0.35 0.51 0.08 -0.01 0.14 0.30 | 2 of 18 (1.72) |
| KLSQSNLYESRNKNNVA | NASQRES | QQYHRLPLS | -0.30 -0.37 -0.58 -0.71 -0.60 -0.53 | 1 of 18 (2.18) |
| KLSQSWLYESRNKNSVA | EASTREV | QQYHRLPLS | 0.06 -0.04 -0.13 -0.31 -0.09 -0.17 | 2 of 18 (2.10) |
| HLSQSVLYESRMKNSVA | NASTRES | QQYHRLPLS | 0.23 -0.25 -0.38 -0.03 -0.26 0.22 | 0 of 18 |
| KLSQSHLYESRNKNAVA | NASTRES | QQYHRLPLS | -0.04 -0.04 0.06 -0.21 -0.09 0.19 | 2 of 18 (1.55) |
| KLSQSQLYESRNKNSVA | HASQRES | QQYHRLPLS | -0.06 -0.03 -0.32 -0.30 -0.26 -0.13 | 0 of 18 |
| KVSQSQLYESRNKNSVA | EASQRES | QQYHRLPLS | -0.27 -0.43 -0.50 -0.66 -0.52 -0.19 | 1 of 18 (1.93) |
| KLSQSVLYESRNKNSVA | GASTRES | QDYHRLPLS | 0.46 0.43 0.88 0.90 0.61 0.37 | 0 of 18 |
| KVSQSQLYESRNKNSVA | NASYRES | QQYHRLPLS | 0.19 0.30 0.17 -0.21 -0.03 -0.26 | 1 of 18 (2.47) |
| KLQQSFLYESRNKNSVA | NASTRMS | QQYHRLPLS | 0.02 -0.22 -0.11 -0.33 -0.18 -0.08 | 2 of 18 (2.79) |
| KLEQSEPYESRNKNSVA | NASQRES | QQYHRLPLS | 0.16 0.10 -0.09 -0.26 -0.05 0.28 | 1 of 18 (4.45) |
| KLSQSTLYESRNKNSVA | NASTRCS | QQYHRLPLS | -0.21 -0.47 -0.62 -0.44 -0.43 -0.31 | 1 of 18 (1.91) |
| KLSQSQLYESRNKNNVA | HASTRES | QQYHRLPLS | -0.18 -0.39 -0.45 -0.53 -0.44 -0.29 | 0 of 18 |
| KLPQSWLYESRNKNNVA | NASTRES | QQYHRLPLS | -0.17 -0.31 -0.54 -0.46 -0.54 -0.24 | 0 of 18 |
| KLPQSVLYESRNKNSVA | NASQRES | QQYHRLPLS | -0.08 -0.25 -0.33 -0.36 -0.33 -0.28 | 2 of 18 (3.41) |
| KISQSVLYESRNKNSVA | DASTRYS | QQYHRLPLS | -0.13 -0.19 -0.23 -0.43 -0.38 -0.19 | 2 of 18 (3.29) |

The last 3 entries again:

CDR-L1,CDR-L2,CDR-L3,"replicates, log10 nM",control signals
KLPQSWLYESRNKNNVA,NASTRES,QQYHRLPLS,-0.17 -0.31 -0.54 -0.46 -0.54 -0.24,0 of 18
KLPQSVLYESRNKNSVA,NASQRES,QQYHRLPLS,-0.08 -0.25 -0.33 -0.36 -0.33 -0.28,2 of 18 (3.41)
KISQSVLYESRNKNSVA,DASTRYS,QQYHRLPLS,-0.13 -0.19 -0.23 -0.43 -0.38 -0.19,2 of 18 (3.29)

The range of this assay differs from that of the first round, and the authors advise against merging the two.
In the paper, a design with two or fewer of six values counts as a poor binder.
Empty control strains, which show no peptide, gave a signal in 4% of pairings with all light chain designs; the median was 2.64 and 95% of these signals were weaker than 1.59. No background was subtracted. The control count says in how many pairings with the empty strains this scFv gave a signal, with their mean in brackets.

Values reported by Li et al. 2023, doi:10.1038/s41467-023-39022-2 (FLAb copy).